The target in this assay is CD3e. Kind of assay: ELISA; MTSP1-treated. To be noted: bispecific antibody.

As usually defined, the EC50 is the concentration that produces a half-maximal response. Read a low EC50 as a more potent agent. As for PC4 + MTSP1, the EC50 was 0.07 nM.
